Values quoted from earlier work in patent US8183046B2, “Temperature resistant pH buffers for use at low temperatures” (The Board of Trustees of the University of Illinois, priority 2007, dated 2012).

Conditions: Table 2; buffer without pK index; cited from earlier work

OCCN(CCO)CCO
Effective pH Range: 7.0–8.3
